# Melting point values, as collected for the OPERA models

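OPERA's authors assembled the values from existing databases and did not measure them anew. The files give a single number for a compound and property, which may rest on several reports. Conditions of the individual experiments are not part of the data. A value may pool stereoisomers or salt forms, and the file does not say which form was measured. Some entries may be limits or estimates that an upstream database listed as plain numbers.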

The melting point is given in degrees Celsius. "via" names the databases from which the curators took the value.

structure (SMILES) | MP (°C) | via
CC(=O)Nc1cccc(N=C=S)c1 | 155 | OCHEM
Nc1cccc(N2CCNC2=O)c1 | 150 | OCHEM
CCCCCCCCC(=O)N(C)C[C@H](O)[C@@H](O)[C@H](O)[C@H](O)CO | 89.4 | eChemPortal
O=C(O)C1CC(=O)N(c2ccccc2Cl)C1 (configuration not stated) | 142 | OCHEM
O=C(O)c1ccc(N2CCOCC2)c([N+](=O)[O-])c1 | 187 | OCHEM
COc1ccc(C)cc1C=CC(=O)O | 142 | OCHEM
COc1ccc2cc(C(=O)O)c(C)nc2c1 | 210 | OCHEM
Clc1ccc2c(Cl)ncnc2c1 | 137 | OCHEM
Cn1c(-c2ccc(Cl)cc2)n[nH]c1=S | 114 | OCHEM
CC(C)c1ccccn1 | -141 | OCHEM
CS(=O)(=O)c1cccc(N)c1 | 50 | OCHEM
O=Cc1sc2ccccc2c1Cl | 105 | OCHEM
CCN(CC)S(=O)(=O)c1ccc(N)cc1 | 100 | OCHEM
COc1cc(C=O)cc(OC)c1OCc1ccccc1 | 63 | OCHEM
C=CCNc1nc(-c2ccccc2)cs1 | 75 | OCHEM
O=C(CCl)Nc1nc(-c2ccc(F)cc2)cs1 | 143 | OCHEM
O=C(O)c1cc2c(s1)CCCCC2 | 164 | OCHEM
Cc1cc(C(=O)NN)c2ccccc2n1 | 178 | OCHEM
CCOc1ccc(NC(=O)CC#N)cc1 | 97.5 | OCHEM
COC(=O)c1cc2c(Br)cccc2[nH]1 | 160 | OCHEM
Cn1nnnc1-c1cccc(N)c1 | 148 | OCHEM
NNC(=O)C1CCCC1 | 113 | OCHEM
Cc1ccc2[nH]nc(C(=O)O)c2c1 | 274 | OCHEM
CC(=O)Nc1c(C)cccc1C(=O)O | 205 | OCHEM
CCOc1ccc(C(C)=O)cc1OCC | 50 | OCHEM
O=Cc1ccc(-c2ccccc2F)o1 | 67 | OCHEM
CC(=O)Nc1ncc2ncn(COCCOC(C)=O)c2n1 | 134 | OCHEM
Cc1nc2scc(-c3ccccc3)c2c(=O)n1N | 135 | OCHEM
N#CCC(=O)NCc1ccco1 | 94 | OCHEM
CC1CCN(c2ccc([N+](=O)[O-])cc2C(=O)O)CC1 | 161 | OCHEM
COC(=O)c1n[nH]c2ccc(N)cc12 | 182 | OCHEM
O[C@@H]1OC[C@@H](Cc2ccc3c(c2)OCO3)[C@@H]1Cc1ccc2c(c1)OCO2 | 132 | OCHEM
CC(=O)NCC(=O)NCC(=O)O | 175 | OCHEM
Cc1cc(C)c2c(-c3ccccc3)nc(=S)n-2[nH]1 | 329 | OCHEM
O=C1CC(=O)Nc2ccccc2N1 | 384 | OCHEM
COc1ccc(C(N)CC(=O)O)cc1 (configuration not stated) | 238 | OCHEM
Cc1ccc(C)c(S(=O)(=O)NN)c1 | 76 | OCHEM
Cc1ccc(OCC(=O)O)c(Br)c1 | 131 | OCHEM
CCCc1nnc(N)s1 | 200 | OCHEM
COc1c(OC)c(OC(=O)C(C)(C)C)c2ccccc2c1OC(=O)C(C)(C)C | 179 | OCHEM
Nc1n[nH]c2ccc(C(F)(F)F)cc12 | 134.5 | OCHEM
Nc1oc2ccccc2c(=O)c1C=O | 250 | OCHEM
CCCCC(CC)CN1CN(CC(CC)CCCC)CC(C)(N)C1 (configuration not stated) | 70 | PubChem
O=C(O)CCCOc1ccc(Cl)cc1 | 115 | OCHEM
ClCc1coc(-c2ccccc2)n1 | 53 | OCHEM
CC(=O)[O-].CCCCCCCCCCCC[n+]1c(C)cc(N)c2ccccc21 | 170 | OCHEM
O=C(CCl)Nc1ccc(S(=O)(=O)N2CCOCC2)cc1 | 146 | OCHEM
O=C(O)C1(O)CCCCC1 | 103 | OCHEM
Cc1cc(=O)oc2cc(OCC(=O)NN)ccc12 | 180 | OCHEM
S=c1nc[nH]c2ccccc12 | 294 | OCHEM
CCN(CC)S(=O)(=O)c1ccc(N)c(N)c1 | 125 | OCHEM

The first 5 entries again:

| structure (SMILES) | MP (°C) | via |
|---|---|---|
| CC(=O)Nc1cccc(N=C=S)c1 | 155 | OCHEM |
| Nc1cccc(N2CCNC2=O)c1 | 150 | OCHEM |
| CCCCCCCCC(=O)N(C)C[C@H](O)[C@@H](O)[C@H](O)[C@H](O)CO | 89.4 | eChemPortal |
| O=C(O)C1CC(=O)N(c2ccccc2Cl)C1 (configuration not stated) | 142 | OCHEM |
| O=C(O)c1ccc(N2CCOCC2)c([N+](=O)[O-])c1 | 187 | OCHEM |

From the experimental data distributed with OPERA 2.9.